Test results: patent publication US20250281574A1 (priority 2022, published 2025)
Peptide text beside a SMILES is read from it. * marks the point of attachment. Biotin = O=C1N[C@H]2[C@H](CS[C@H]2CCCCC(=O)*)N1; Ahx = NCCCCCC(=O)O

Test system: C57BL/6 mice fed ethanol
Test: Alcoholic lung syndrome mouse model with LPS lung injury, Evan's Blue permeability
Conditions: alcoholic C57BL/6 mice; 5 mg/kg aerosolized aCT1 1 hour after intratracheal 5 mg/kg LPS

CC[C@H](C)[C@H](NC(=O)[C@H](CCC(=O)O)NC(=O)[C@H](CC(C)C)NC(=O)[C@H](CC(=O)O)NC(=O)[C@H](CC(=O)O)NC(=O)[C@@H]1CCCN1C(=O)[C@H](CCCNC(=N)N)NC(=O)[C@@H]1CCCN1C(=O)[C@H](CCCNC(=N)N)NC(=O)[C@H](CCCCN)NC(=O)[C@H](CCCCN)NC(=O)[C@H](Cc1c[nH]c2ccccc12)NC(=O)[C@@H]1CCCN1C(=O)[C@H](CCCCN)NC(=O)[C@H](CCCNC(=N)N)NC(=O)[C@H](CCCNC(=N)N)NC(=O)[C@H](CC(N)=O)NC(=O)[C@@H]1CCCN1C(=O)[C@H](Cc1ccccc1)NC(=O)[C@H](Cc1c[nH]c2ccccc12)NC(=O)[C@@H](NC(=O)[C@H](CCCCN)NC(=O)[C@@H]1CCCN1C(=O)[C@H](CCC(N)=O)NC(=O)[C@H](CCCNC(=N)N)NC(=O)CCCCCNC(=O)CCCC[C@@H]1SC[C@@H]2NC(=O)N[C@@H]21)[C@@H](C)CC)C(=O)O [aCT1] ({Biotin-Ahx}-RQPKIWFPNRRKPWKKRPRPDDLEI-OH; N-terminus and C-terminus assumed) was tested, and the “pulmonary barrier permeability (Evan's Blue assay)” value was “reduced pulmonary barrier permeability back to non-alcoholic levels”.
